In paper PMC12503259, “Establishment of an in vivo analytical method for detecting total anti-UFH activity and pharmacokinetic study in PS and R15 in rats” (PLOS One, 2025):

Test: Pharmacokinetic study in Wistar rats, total anti-heparin activity in plasma (fixed UFH added, residual UFH by anti-FXa kit)
Assay type: in vivo
Method: Processing of Plasma Samples: 100 μL of the unknown plasma sample was added to 500 μL of 75% methanol (methanol: water = 75:25, v/v) and vortex-mixed for 5 seconds. The mixture was then centrifuged at 12,000 r/min for 10 minutes at 25°C. The supernatant (500 μL) was collected and dried under nitrogen at 60°C. Subsequently, UFH (0.14 U·mL^-1 for PS and 0.15 U·mL^-1 for R15; 120 μL) was added, and the mixture was vigorously shaken at room temperature for 10 minutes. The residual UFH content was measured using the Heparin Anti-FXa assay kit.
The detailed procedure is as follows: Accurately pipette 40 μL of the sample into a 96-well plate. Place the plate in a microplate shaker. Using a multichannel pipette, add 40 μL of reagent R1 and mix by shaking. Incubate at 37 °C for exactly 3 minutes (start timing upon addition of R1; at 50 seconds, begin shaking with the microplate shaker for 1 minute, then place the plate in the incubator). Remove the 96-well plate from the incubator and place it on the open microplate shaker. Using a multichannel pipette, add 40 μL of reagent R2 to each well and incubate at 37 °C for 6 minutes (after adding R2, at 3 minutes and 50 seconds, open the microplate shaker and shake for 4 minutes, then return the plate to the incubator). Remove the 96-well plate from the incubator and place it on the open microplate shaker. Quickly add 40 μL of reagent R3 using a multichannel pipette and shake until 9 minutes and 10 seconds. At 9 minutes and 30 seconds, add 80 μL of 20% acetic acid to each well to terminate the reaction. Measure the absorbance at 405 nm using a microplate reader (Multiskan FC, Thermo Fisher US).
Eight Wistar rats (approximately 250 g; equally divided by sex and acclimatized for 1 week in the animal facility) were used for profiling pharmacokinetics of PS. Each rat was cannulated in carotid artery to collect blood the day before the experiment. PS was injected through the tail vein and blood samples were collected at 0 min, 1 min, 3 min, 5 min, 7 min, 9 min, 11 min, 15 min, 20 min, 30 min, 60 min and 120 min in a tube containing 4% sodium citrate. Plasma was achieved by centrifugation at 8000 r/min for 10 min, and stored in the refrigerator at −80°C. […]
During the analysis of actual samples, a standard curve and a series of calibration standards were established for each analytical batch to determine the concentration of PS and R15 in plasma. The concentrations were plotted on the X-axis, and the data were fitted using Equation (3).
Weighted least squares regression was used for the calculations. The Optical Density (OD) values of the unknown biological samples were substituted into the equation to determine the concentration of PS and R15, respectively.
Pharmacokinetic parameters of PS were calculated by WinNonlin 6.4, and all data were processed by Microsoft Excel 2013 and GraphPad Prism 8.3.

[1] = R15 2700 U/kg iv, rat 27# (female), single animal
[2] = R15 2700 U/kg iv, rat 28# (female), single animal
[3] = R15 2700 U·kg^-1 single iv tail vein, Wistar rats, Total (male and female), mean ± SD, n = 8
[4] = R15 2700 U·kg^-1 single iv tail vein, Wistar rats, female, mean ± SD, n = 4
[5] = R15 2700 U·kg^-1 single iv tail vein, Wistar rats, male, mean ± SD, n = 4
[6] = both 300 U·kg^-1 iv, Wistar rats, pooled

In the case of N=C(N)NCCC[C@H](NC(=O)[C@H](CCCNC(=N)N)NC(=O)[C@H](CCCNC(=N)N)NC(=O)[C@H](CCCNC(=N)N)NC(=O)[C@H](CCCNC(=N)N)NC(=O)[C@H](CCCNC(=N)N)NC(=O)[C@H](CCCNC(=N)N)NC(=O)[C@H](CCCNC(=N)N)NC(=O)[C@H](CCCNC(=N)N)NC(=O)[C@H](CCCNC(=N)N)NC(=O)[C@H](CCCNC(=N)N)NC(=O)[C@H](CCCNC(=N)N)NC(=O)[C@H](CCCNC(=N)N)NC(=O)[C@H](CCCNC(=N)N)NC(=O)[C@@H](N)CCCNC(=N)N)C(=O)O [R15], the T1/2 [1] is reported as 2.3928 h, the Vd [1] is reported as 2543 mL･kg^-1 and the AUC [2] is reported as 1543 min･µg･mL^-1. It also gave a CL [2] of 8.97 mL･min^-1･kg^-1, a Cmax [2] of 10.11 µg･mL^-1 and an MRT [2] of 3.6828 h. For the same molecule, the T1/2 [2] was 3.8835 h, the Vd [2] was 3015 mL･kg^-1 and the Cmax (R15 2700 U·kg^-1 single iv tail vein, Wistar rats, Total (male and female), at 1 min, mean ± SD, n = 8) was 11.65 ± 2.95 µg/mL. It also gave an AUC [3] of 1320 ± 387 µg·min/mL, a CL [3] of 11.16 ± 2.60 mL/min/kg and an MRT [3] of 3.2312 ± 0.8518 h. For the same molecule, the T1/2 [3] was 2.7187 ± 0.908 h, the Vd [3] was 2618 ± 987 mL/kg and the AUC [4] was 1399 ± 249 µg·min/mL. For the same molecule, the CL [4] was 10.35 ± 1.63 mL/min/kg, the Cmax [4] was 10.37 ± 3.68 µg/mL and the MRT [4] was 3.4318 ± 0.6907 h. It also gave a T1/2 [4] of 2.9057 ± 0.799 h, a Vd [4] of 2579 ± 655 mL/kg and an AUC [5] of 1241 ± 521 µg·min/mL. For the same molecule, the CL [5] was 11.97 ± 3.37 mL/min/kg, the Cmax [5] was 12.94 ± 1.55 µg/mL and the MRT [5] was 3.0305 ± 1.053 h. The T1/2 [5] was 2.5315 ± 1.092 h, the Vd [5] was 2658 ± 1356 mL/kg and the “Concentration (plasma concentration of R15), Mean±SD” value (Wistar rats, intravenous infusion 2700 U/kg, time 0 min, mean of individual rats) was 0.00 µg/mL. For the same molecule, the level at 8 h (Wistar, plasma, R15 900 U/kg iv, 480 min, Mean±SD column (one rat), read-out: plasma concentration) was 0.43 µg/mL, the “AUC of R15 relative to PS” value [6] was 18 fold and the “MRT of R15 relative to PS” value [6] was 19 fold. For the same molecule, the “T1/2 of R15 relative to PS” value [6] was “approximately 13 fold”, the “CL of R15 relative to PS” value (both 300 U·kg^-1 iv, Wistar rats, pooled, fraction of PS value) was “about 1/20” and the level at 1 min (both sexes, Wistar, rat, plasma, R15 300 U/kg iv, 1 min, Mean±SD, read-out: plasma concentration) was 10.9 ± 2.43 µg/mL. The level at 5 min (both sexes, Wistar, rat, plasma, R15 300 U/kg iv, 5 min, Mean±SD, read-out: plasma concentration) was 6.99 ± 1.29 µg/mL, the level at 0.25 h (both sexes, Wistar, rat, plasma, R15 300 U/kg iv, 15 min, Mean±SD, read-out: plasma concentration) was 7.34 ± 1.18 µg/mL and the level at 0.5 h (both sexes, Wistar, rat, plasma, R15 300 U/kg iv, 30 min, Mean±SD, read-out: plasma concentration) was 5.88 ± 0.73 µg/mL. The level at 1 h (both sexes, Wistar, rat, plasma, R15 300 U/kg iv, 60 min, Mean±SD, read-out: plasma concentration) was 4.31 ± 1.06 µg/mL, the level at 2 h (both sexes, Wistar, rat, plasma, R15 300 U/kg iv, 120 min, Mean±SD, read-out: plasma concentration) was 1.54 ± 0.57 µg/mL and the level at 4 h (both sexes, Wistar, rat, plasma, R15 300 U/kg iv, 240 min, Mean±SD, read-out: plasma concentration) was 0.61 ± 0.15 µg/mL. The level at 1 min (both sexes, Wistar, rat, plasma, R15 900 U/kg iv, 1 min, Mean±SD, read-out: plasma concentration) was 11.5 ± 1.14 µg/mL, the level at 5 min (both sexes, Wistar, rat, plasma, R15 900 U/kg iv, 5 min, Mean±SD, read-out: plasma concentration) was 8.15 ± 0.81 µg/mL and the level at 0.25 h (both sexes, Wistar, rat, plasma, R15 900 U/kg iv, 15 min, Mean±SD, read-out: plasma concentration) was 7.23 ± 0.34 µg/mL. For the same molecule, the level at 0.5 h (both sexes, Wistar, rat, plasma, R15 900 U/kg iv, 30 min, Mean±SD, read-out: plasma concentration) was 5.69 ± 0.65 µg/mL, the level at 1 h (both sexes, Wistar, rat, plasma, R15 900 U/kg iv, 60 min, Mean±SD, read-out: plasma concentration) was 5.11 ± 0.59 µg/mL and the level at 2 h (both sexes, Wistar, rat, plasma, R15 900 U/kg iv, 120 min, Mean±SD, read-out: plasma concentration) was 3.93 ± 0.54 µg/mL. It also gave a level at 4 h (both sexes, Wistar, rat, plasma, R15 900 U/kg iv, 240 min, Mean±SD, read-out: plasma concentration) of 1.26 ± 0.42 µg/mL, a level at 6 h (both sexes, Wistar, rat, plasma, R15 900 U/kg iv, 360 min, Mean±SD, read-out: plasma concentration) of 0.89 ± 0.21 µg/mL and a level at 1 min (both sexes, rat, plasma, Wistar rats, intravenous infusion 2700 U/kg, time 1 min, mean of individual rats, read-out: Concentration (plasma concentration of R15), Mean±SD) of 11.7 ± 2.95 µg/mL. For the same molecule, the level at 5 min (both sexes, rat, plasma, Wistar rats, intravenous infusion 2700 U/kg, time 5 min, mean of individual rats, read-out: Concentration (plasma concentration of R15), Mean±SD) was 5.23 ± 1.64 µg/mL, the level at 0.25 h (both sexes, rat, plasma, Wistar rats, intravenous infusion 2700 U/kg, time 15 min, mean of individual rats, read-out: Concentration (plasma concentration of R15), Mean±SD) was 4.7 ± 1.43 µg/mL and the level at 0.5 h (both sexes, rat, plasma, Wistar rats, intravenous infusion 2700 U/kg, time 30 min, mean of individual rats, read-out: Concentration (plasma concentration of R15), Mean±SD) was 3.67 ± 0.92 µg/mL. The level at 1 h (both sexes, rat, plasma, Wistar rats, intravenous infusion 2700 U/kg, time 60 min, mean of individual rats, read-out: Concentration (plasma concentration of R15), Mean±SD) was 3.97 ± 0.91 µg/mL, the level at 2 h (both sexes, rat, plasma, Wistar rats, intravenous infusion 2700 U/kg, time 120 min, mean of individual rats, read-out: Concentration (plasma concentration of R15), Mean±SD) was 3.48 ± 0.58 µg/mL and the level at 4 h (both sexes, rat, plasma, Wistar rats, intravenous infusion 2700 U/kg, time 240 min, mean of individual rats, read-out: Concentration (plasma concentration of R15), Mean±SD) was 2.34 ± 0.76 µg/mL. It also gave a level at 6 h (both sexes, rat, plasma, Wistar rats, intravenous infusion 2700 U/kg, time 360 min, mean of individual rats with determined values, read-out: Concentration (plasma concentration of R15), Mean±SD) of 1.75 ± 0.44 µg/mL, a level at 8 h (both sexes, rat, plasma, Wistar rats, intravenous infusion 2700 U/kg, time 480 min, mean of individual rats with determined values, read-out: Concentration (plasma concentration of R15), Mean±SD) of 1.22 ± 0.52 µg/mL and a level at 10 h (both sexes, rat, plasma, Wistar rats, intravenous infusion 2700 U/kg, time 600 min, mean of individual rats with determined values, read-out: Concentration (plasma concentration of R15), Mean±SD) of 0.77 ± 0.14 µg/mL. The level at 12 h (both sexes, rat, plasma, Wistar rats, intravenous infusion 2700 U/kg, time 720 min, mean of individual rats with determined values, read-out: Concentration (plasma concentration of R15), Mean±SD) was 0.46 ± 0.01 µg/mL.

Read-outs that look alike come from different tables or passages of the source.
